Source: EP2987482A1, “Soluble and dispersible pharamaceutical deferasirox formulation” (Santa Farma Ilaç Sanayi A.S., priority 2014, dated 2016)

Experiment: Solubility of deferasirox in water from composition with sodium carbonate, dissolved with magnetic stirrer
Assay type: physicochemical
Conditions: composition with 500 mg deferasirox and 80 mg sodium carbonate; magnetic stirrer for 3 minutes
Description: Table 1 below, without being limited to the compounds and their amounts mentioned, illustrates the pH values and solubility data of a pharmaceutical composition comprising 500 mg of deferasirox combined with various amounts of sodium carbonate in a suitable carrier when the said composition was dissolved using a magnetic stirrer for 3 minutes.

4-[3,5-bis(2-hydroxyphenyl)-[1,2,4]triazol-1-yl]benzoic acid [deferasirox]
Solubility of deferasirox in water: 0.65 mg/mL
